The assay has as its target Beta-secretase 1 (Homo sapiens, UniProt P56817). The assay is described as follows: Inhibition of BACE by secreted APPbeta release assay.

Chains of the proteins cited; added tags and fusions are not shown. Lines headed by an entry give the natural chain unless they say otherwise; changes in a name come on top.
UniProt P56817: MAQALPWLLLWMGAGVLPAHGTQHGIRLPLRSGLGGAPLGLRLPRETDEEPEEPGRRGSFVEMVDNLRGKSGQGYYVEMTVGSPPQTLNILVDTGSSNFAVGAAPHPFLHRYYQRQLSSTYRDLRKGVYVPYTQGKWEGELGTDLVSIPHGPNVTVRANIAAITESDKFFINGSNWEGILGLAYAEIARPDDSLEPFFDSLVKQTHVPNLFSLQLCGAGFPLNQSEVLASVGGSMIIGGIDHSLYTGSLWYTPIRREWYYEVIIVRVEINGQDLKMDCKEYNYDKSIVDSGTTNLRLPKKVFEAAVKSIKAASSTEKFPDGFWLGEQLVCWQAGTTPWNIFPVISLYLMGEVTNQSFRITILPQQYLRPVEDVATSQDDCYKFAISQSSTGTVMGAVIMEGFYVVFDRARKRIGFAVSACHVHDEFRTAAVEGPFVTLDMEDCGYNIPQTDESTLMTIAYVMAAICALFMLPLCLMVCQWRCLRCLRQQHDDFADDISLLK

Structures are written as SMILES. pIC50: −log10 of the molar value.

The values below come from ChEMBL document CHEMBL2150891, “Compounds and Their Use as BACE Inhibitors: Patent Highlight” (ACS Med Chem Lett, 2012).

A word on the pIC50: it is the IC50 on a negative log10 scale, so that one unit is a factor of ten.

Consider `CO[C@H]1CC[C@]2(CC1)Cc1ccc(-c3cc(Cl)cc(C#N)c3)cc1C21N=C(C)C(N)=N1` (stereo partly specified), for which the pIC50 is 9.14.
